# Reference: PubChem BioAssay AID1347077 (National Center for Advancing Translational Sciences (NCATS), 2019)
# Protein sequences, listed by entry. Tags and fused reporters are not part of them.
# UniProt P07550, whole entry: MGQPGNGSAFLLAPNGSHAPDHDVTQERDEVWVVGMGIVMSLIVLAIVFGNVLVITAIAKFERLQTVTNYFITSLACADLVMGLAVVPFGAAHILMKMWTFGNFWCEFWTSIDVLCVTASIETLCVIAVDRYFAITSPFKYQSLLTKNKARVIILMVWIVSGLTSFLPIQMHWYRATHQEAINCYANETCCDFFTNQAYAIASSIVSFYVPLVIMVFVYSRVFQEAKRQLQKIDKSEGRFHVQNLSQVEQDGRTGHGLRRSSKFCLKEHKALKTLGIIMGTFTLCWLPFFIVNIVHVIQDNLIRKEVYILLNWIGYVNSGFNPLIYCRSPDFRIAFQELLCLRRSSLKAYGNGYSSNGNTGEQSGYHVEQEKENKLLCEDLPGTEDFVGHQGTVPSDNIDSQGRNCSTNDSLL
# This is a selection; strong and weak results do not stand in their true shares. Some of these compounds have results that are not shown, active ones among them. Activity calls are given as the source filed them. Calls follow the shape of the dose curve; as a rule, active = well fitted activation curve with a large enough effect; inconclusive = small, poorly fitted or top-dose-only effect, or another doubt; inactive = no such curve, though single readings can be large or run the other way.
# Target: Beta-2 adrenergic receptor (Homo sapiens) (UniProt P07550)
# Test: qHTS assay of beta-arrestin-biased ligands of beta2-adrenergic receptor: NCGC Sytravon Library Screen;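 also: 0% = DMSO and full agonism = EC100 isoproterenol or metaproterenol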
# Conditions: HTLA Tango cells, beta-arrestin recruitment, luciferase luminescence, 18 h; at 46.1 µM (top of the series)
# Text: The concept of biased agonism is an emerging concept of molecular pharmacology which proposes that seven transmembrane receptors (7TMRs) or G protein-coupled receptors (GPCRs), exist in multiple signaling conformations and complexes and that ligands (either agonists or antagonists) can induce signaling biased responses for distinct signal transduction cascades. […] Furthermore, accumulating evidence over the last decade has drawn attention to a novel function of beta-arrestins as signal transducers that scaffold various signaling molecules upon activation of 7TMRs. […] This beta-arrestin-biased signaling presumably leads to distinct physiological outcomes from those by G protein activation. Additionally, the active receptor conformations which prefer on this beta-arrestin signaling are likely different from those activating G protein signaling. […] The goal of this screening project will be to discover and optimize novel beta-arrestin-biased ligands for beta2-AR signaling. A luminescent cell-based assay for beta2-AR-mediated agonism, known as the Tango assay, has been validated in which ligand binding of a recombinant beta2-AR and subsequent recruitment of a recombinant beta-arrestin lead to the release of the transcriptional activator tTA, which upregulates transcription of a tTA-responsive luciferase gene. […] Compounds from the NCGC Sytravon Library collection were screened as a concentration-titration series that ranged from 46 microM to 0.6 nM. NIH Molecular Libraries Probe Production Network [MLPCN] NIH Chemical Genomics Center [NCGC] MLPCN Grant: Fast-track/HHSN271700800025C PI: Bryan Roth and Bob Lefkowitz
# Tango cells were dispensed into white, solid, tissue-culture-treated 1536-well plates at 1500 cells/well in DMEM, containing 1% fetal bovine serum (FBS). Then, 23 nL of compounds or DMSO were delivered to each well using a pin tool. Plates were incubated at 37 degrees C, 5% CO2 for 18 hr. Then 2.5 uL luminescent substrate mix (in-house prepared: 150 mM Tris-Cl, pH 7.6, 3 mM MgCl2, 1% Triton X-100, 5 mM DTT, 0.5 mM CoA, 0.15 mM ATP, 0.44 mM D-luciferin, final concentrations) was added to each well. Plates were then incubated for 15 minutes at room temperature, and subsequently measured on a ViewLux plate reader for luminescent signal using a clear filter with a 10 second exposure and 2x binning. The %Activity was determined from the corrected luminescence values. […] Concentration-response curves were fitted to the signals arising from the resulting luminescence. The concentration-effect curves were then classified based on curve quality (r2), response magnitude and degree of measured activity, and compounds were subsequently categorized based on their curve class.
row,SMILES,activation
1,CN(C)C1(CNC(=O)c2ccccc2[N+](=O)[O-])CCCCC1,inactive: -4%
2,CCCCOc1ccccc1C(=O)NCC1(N(C)C)CCCCC1,inactive: -4.07%
3,CCOc1cccc(C(=O)NCC2(N(C)C)CCCCC2)c1,inactive: -0.878%
4,CN(C)C1(CNC(=O)c2cccc(Cl)c2)CCCCC1,inactive: -3.14%
5,CN(C)C1(CNC(=O)c2ccccc2F)CCCCC1,inactive: -3.4%
6,COc1cccc(C(=O)NCC2(N3CCOCC3)CCCCC2)c1,inactive: -2.29%
7,CC(C)COc1ccc(C(=O)NCC2(N(C)C)CCCCC2)cc1,inactive: -3.33%
8,Cc1cccc(C(=O)NCC2(N(C)C)CCCCC2)c1,inactive: -3.76%
9,COc1cc(C(=O)NCC2(N(C)C)CCCCC2)cc(OC)c1OC,inactive: -1.37%
10,CC(C)Oc1ccc(C(=O)NCC2(N(C)C)CCCCC2)cc1,inactive: -4.55%
11,COc1ccc(C(=O)NCC2(N(C)C)CCCCC2)cc1Cl,inactive: -2.98%
